This is an account of results in ChEMBL document CHEMBL2029275, “Structure-activity relationship of a series of non peptidic RGD integrin antagonists targeting α5β1: part 2” (Bioorg Med Chem Lett, 2012).

Protein sequences, listed by entry. Tags and fused reporters are not part of them. Residues count along the entry.
UniProt P08648, 895-1049 limits assumed: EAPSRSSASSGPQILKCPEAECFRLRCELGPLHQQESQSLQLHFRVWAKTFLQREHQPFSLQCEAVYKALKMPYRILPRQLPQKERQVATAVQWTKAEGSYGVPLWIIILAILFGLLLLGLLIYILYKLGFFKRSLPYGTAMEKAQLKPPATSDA
UniProt P08648, 42-894 limits assumed: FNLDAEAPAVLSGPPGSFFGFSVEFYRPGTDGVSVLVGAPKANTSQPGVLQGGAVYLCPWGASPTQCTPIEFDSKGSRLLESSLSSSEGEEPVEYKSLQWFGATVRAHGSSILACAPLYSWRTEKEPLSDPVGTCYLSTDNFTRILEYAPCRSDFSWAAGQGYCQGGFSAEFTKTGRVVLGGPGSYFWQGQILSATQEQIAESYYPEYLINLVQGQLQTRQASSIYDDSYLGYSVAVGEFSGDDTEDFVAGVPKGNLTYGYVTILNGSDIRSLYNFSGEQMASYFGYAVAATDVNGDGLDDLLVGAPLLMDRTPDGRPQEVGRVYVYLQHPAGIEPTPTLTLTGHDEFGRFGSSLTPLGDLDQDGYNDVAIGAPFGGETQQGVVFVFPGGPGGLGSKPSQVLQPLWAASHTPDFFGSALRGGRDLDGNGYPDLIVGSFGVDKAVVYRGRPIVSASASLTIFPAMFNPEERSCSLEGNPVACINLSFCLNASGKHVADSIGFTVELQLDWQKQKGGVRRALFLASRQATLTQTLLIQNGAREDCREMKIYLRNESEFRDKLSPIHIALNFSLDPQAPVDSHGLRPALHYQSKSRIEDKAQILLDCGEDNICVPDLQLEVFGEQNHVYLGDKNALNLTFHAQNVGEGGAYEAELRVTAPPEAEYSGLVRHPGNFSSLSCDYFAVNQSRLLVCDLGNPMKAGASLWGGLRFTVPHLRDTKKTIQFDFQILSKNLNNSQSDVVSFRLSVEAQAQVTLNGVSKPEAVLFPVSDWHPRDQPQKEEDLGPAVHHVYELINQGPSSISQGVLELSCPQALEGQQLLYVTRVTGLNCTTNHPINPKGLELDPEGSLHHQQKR

Bounds are passed on as bounds.

The target in the assay is Integrin alpha-5/beta-1 (Homo sapiens, UniProt P05556+P08648). The experiment in a line: Antagonist activity at integrin alpha5beta1 in human K562 cells assessed as inhibition of cell adhesion. The assay is classed as functional, cell-based.

For `CNc1cccc(CCOc2ccc(C[C@H](NC(=O)c3c(C)noc3C)C(=O)O)cc2)n1`, the IC50 is below 8 nM.
